# Data reported in PubChem BioAssay AID588351 (The Scripps Research Institute Molecular Screening Center, 2011).
# The list shows a part of the results, in another mix than the full data. The source made the active and inactive calls.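 How the source made its calls: active means mean activation above a set limit taken from the primary screen (cut at about 8% in these data); inactive means the rest.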
# Experiment: FXN GAA850 promoter activators in reporter cells, confirmation, cell-based, luminescence, HEK293 lucGAA850, triplicate (AID 588351);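 further: 0% = DMSO wells and 100% = 10 µM SAHA wells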
# Details: HEK293 lucGAA850 FXN promoter luciferase reporter, 24 h; at 6 µM; active compounds read high; 100% = activation by SAHA
row,SMILES,activation
1,CCc1nc2c(n1)c1c(non1O)c1c2no[n+]1[O-],active: 29.5%
2,CC(=O)NC(SC(=S)N(C)C)C(Cl)(Cl)Cl (configuration not stated),active: 23%
